Measurements from patent US20040102362A1, “Protocol for paracentesis” (priority 2000, published 2004).

Tested on: cirrhotic patients with tense ascites
Conditions: for Aldosteronaemia: plasma aldosterone as marker of blood volume; for Reninaemia: plasma renin as marker of blood volume

## Albumin: human albumin derived from donated human blood, given as 20% infusion
4-6 days later
  Aldosteronaemia: 1420 ± 292 pg/mL
  Reninaemia: 223 ± 74 pg/mL
Before
  Aldosteronaemia: 1149 ± 324 pg/mL
  Reninaemia: 194 ± 47 pg/mL
human, in vivo
  Creatininaemia: 71 ± 6
  Natraemia: 132 ± 1 mmol/L

Where two headings read alike, the source gives them in different places.
